Source: patent US20160158267A1, “METHODS OF PREVENTING, REDUCING OR TREATING MACULAR DEGENERATION” (Inotek Pharmaceuticals Corporation, priority 2014, published 2016)

Sequences of proteins named here, by UniProt entry; tags and fusion partners are left off.
UniProt P0DMS8, whole entry: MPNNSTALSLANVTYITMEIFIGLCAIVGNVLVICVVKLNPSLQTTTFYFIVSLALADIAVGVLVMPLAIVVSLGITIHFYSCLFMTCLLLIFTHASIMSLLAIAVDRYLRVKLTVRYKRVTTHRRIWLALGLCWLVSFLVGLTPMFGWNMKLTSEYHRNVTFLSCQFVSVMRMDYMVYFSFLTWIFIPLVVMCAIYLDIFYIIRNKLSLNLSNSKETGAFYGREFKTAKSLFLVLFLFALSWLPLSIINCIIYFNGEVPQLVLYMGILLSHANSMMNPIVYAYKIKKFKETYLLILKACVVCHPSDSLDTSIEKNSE

Target: human adenosine A3 receptor (Homo sapiens, UniProt P0DMS8)
Assay: Inhibition of forskolin-stimulated adenylyl cyclase via A3 receptor, CHO cell membranes
Assay type: biochemical
Description: The A1 and A3 receptor-mediated inhibition of forskolin-stimulated adenylyl cyclase activity was tested in membranes prepared from CHO cells stably transfected with the human A1 and A3 adenosine receptors. The A2A and A2B receptor-mediated stimulation of basal cyclase activity was tested in membranes prepared from CHO cells stably transfected with the human A2A and A3 adenosine receptors.

- EC50: > 100 µM
SMILES: O=[N+]([O-])OC[C@H]1O[C@@H](n2cnc3c(NC4CCCC4)nc(Cl)nc32)[C@H](O)[C@@H]1O [Compound B, ((2R,3S,4R,5R)-5-(2-chloro-6-(cyclopentylamino)-9H-purin-9-yl)-3,4-dihydroxytetrahydrofuran-2-yl)methyl nitrate]
